The record followed here is ChEMBL document CHEMBL5390232, “Discovery of (E)-2-(hydroxyimino)-N-(2 ((4methylpentyl)amino)ethyl)acetamide (KR-27425) as a non-pyridinium oxime reactivator of paraoxon-inhibited acetylcholinesterase” (2023).

Data set [1] can be described thus: Drug exposure in mouse plasma at 10 mg/kg, ip measured after 30 mins by LC-MS/MS analysis. To be noted: read-out: Cp, in vivo, 0.5 h.
Data set [2] can be described thus: Drug exposure in mouse brain at 10 mg/kg, ip measured after 30 mins by LC-MS/MS analysis. To be noted: read-out: Drug uptake, in vivo, 0.5 h.
The next data set concerns HFL1. The experiment in a line: Cytotoxicity against human HFL1 cells assessed as reduction in cell viability incubated for 24 hrs by MTT assay. To be noted: hfl1, 24 h. On the technique in general: Formazan colour is commonly taken as a measure of viable cells.
The test system of the next data set is CHO-K1. Kind of data set: Cytotoxicity against CHO-K1 cells assessed as reduction in cell viability incubated for 24 hrs by MTT assay. To be noted: chinese hamster, cho-k1, 24 h.
Data set [3] is described as follows: Ratio of drug exposure in mouse brain to plasma at 10 mg/kg, ip measured after 30 mins by LC-MS/MS analysis. To be noted: 0.5 h.
The subject of a further data set is Vero. The experiment in a line: Cytotoxicity against African green monkey Vero cells assessed as reduction in cell viability incubated for 24 hrs by MTT assay. To be noted: chlorocebus sabaeus.
The subject of a further data set is NIH3T3. The experiment in a line: Cytotoxicity against mouse NIH3T3 cells assessed as reduction in cell viability incubated for 24 hrs by MTT assay. The settings on record: nih3t3, 24 h.
The next data set relates to L929. Kind of data set: Cytotoxicity against mouse L929 cells assessed as reduction in cell viability incubated for 24 hrs by MTT assay. The settings on record: l929, 24 h.

Regarding `NC(=O)c1cc[n+](COC[n+]2ccccc2/C=N/O)cc1`, the concentration in data set [1] came to 4220 nM; in data set [2], 185 nM.

By CC50 is commonly meant the concentration giving 50% cytotoxicity. `CC(C)CCCNCCNC(=O)/C=N/O`: the CC50 in the data set on HFL1, in the data set on CHO-K1, in the data set with Vero, in the data set on NIH3T3 and in the data set on L929 was more than 100 µM each time. In data set [3], the BPR turned out to be 100%. The values for the concentration in data set [1] and in data set [2] were 444 nM and 445 nM, respectively.
